Data on four substances can be found in article PMC7860060 (ACS Omega, 2021).

One data set can be described thus: ζ-potential. Type of data set: physicochemical. The settings on record: 8 mg/mL in 1 mM PB pH 7.4, 25 °C, Malvern Nano-ZS, average of three measurements.
The nature of data set [1]: Dynamic light scattering, hydrodynamic diameter. Format: physicochemical. The settings on record: DLS, 0.25 mg/mL in 0.1 M PB pH 7.4, 25 °C, average of three measurements.
The nature of data set [2]: SDS-PAGE of carbamylated proteins. Type of data set: physicochemical. To be noted: 10% gel, denatured with SDS 60 °C 5 min, 200 V ∼30 min.
For data set [3] the following is noted: tubular cell damage and peritubular fibrosis; cited from earlier work.
The conditions of data set [4]: cited from earlier work.

As for “HSA: Albumin from human serum (HSA, lyophilized, fatty-acid-free)”, the ζ-potential entry in the data set “ζ-potential” is recorded as “–7.46 ± 0.65 mV”. In data set [1], this substance returned a hydrodynamic diameter of 9.4 nm.
“cHSA-1: in vitro carbamylated HSA, Hcit% 0.54”: in data set [1], the hydrodynamic diameter turned out to be 12.6 nm.
Regarding “cHSA-2: in vitro carbamylated HSA, Hcit% 2.7”, the ζ-potential entry in the data set “ζ-potential” was “–10.8 ± 0.44 mV”. Moreover, in data set [1], the hydrodynamic diameter entry is on record as “remained without further change”.
Turning to “cHSA: carbamylated human serum albumin, degree of carbamylation not specified”, the “SDS-PAGE bands versus native protein” value in data set [2] is recorded as “bands remained unchanged compared to their native protein”. Also, the nephrotoxicity entry in data set [3] was “nephrotoxic”. In data set [4], the “association with cardiovascular mortality and sudden cardiac death” value was “strongly associated with cardiovascular mortality and sudden cardiac death”.
